# Tested on: E. coli (NDM-1; CTX-M15)
# Experiment: Septicaemia infection model, survival
smiles,measurement,setting,value
"CCNC(=O)Nc1nc2cc(-c3cnc([C@@H](C)OP(=O)(O)O)nc3)cc(-c3ccccn3)c2s1 [Example 152 of WO2013/138860, [(1R)-1-[5-[2-(ethylcarbamoylamino)-7-(2-pyridyl)-1,3-benzothiazol-5-yl]pyrimidin-2-yl]ethyl] dihydrogen phosphate]",mice survived at the end of 5 days,one dose (1 hour post infection): 100 mg/kg IV plus PMBN 50 mg/kg SC,20%
same,mice survived at the end of 5 days,two doses (1 and 3 hours post infection): 100 mg/kg IV plus PMBN 50 mg/kg SC,80%
